The numbers were not newly measured in US10961240B2, “Formulations of a compound modulating kinases” (Plexxikon Inc., priority 2017, dated 2021), which cites them from elsewhere.

This series relates to diffuse-type giant cell tumor. The note with it: patients.

As to “RG7155: CSF1R inhibitor RG7155; cited paper title names an anti-CSF-1R antibody”, the clinical response entry is reported as “clinical objective responses”.
